This is an account of results in patent US8546386B2, “Corrosion and microbial control in hydrocarbonaceous compositions” (Dow Global Technologies LLC, priority 2008, dated 2013).

This is a selection: effects in other tests are not listed, and their absence says nothing.

The assay relates to Hormoconis resinae ATCC#20495. Nature of the assay: Microbial testing in biodiesel fuel, plate count. Type of assay: cell-based. Conditions: no biocide.

For `OCCN(CCO)CCO`, the “Mold (H. resinae) count” value is listed as 1.60E+03 Mold/ml (additive 500 ppm, Week 4) and less than 1.0E2 Mold/ml (additive 1500 ppm, Week 1).
